This note sets out measurements from ChEMBL document CHEMBL1126522, “Indolocarbazoles. 1. Total synthesis and protein kinase inhibiting characteristics of compounds related to K-252c” (Bioorg Med Chem Lett, 1993).

For orientation: IC50 means the point on the concentration scale where inhibition reaches its midpoint. High values mean lower potency, low ones higher potency.

The target in the test is Protein kinase C (PKC). Briefly: Inhibition of partially purified rat brain protein kinase C.

For `COC(=O)[C@@]1(O)C[C@H]2O[C@]1(C)n1c3ccccc3c3c4c(c5c6ccccc6n2c5c31)C(=O)NC4` (single isomer, unassigned) [K-252A], the IC50 came to 60 nM.
